6 compounds from ChEMBL document CHEMBL1142715, “Discovery of new tetracyclic tetrahydrofuran derivatives as potential broad-spectrum psychotropic agents” (J Med Chem, 2005) can be followed below.

Sequences of proteins named here, by UniProt entry; tags and fusion partners are left off.
UniProt P28223, whole entry: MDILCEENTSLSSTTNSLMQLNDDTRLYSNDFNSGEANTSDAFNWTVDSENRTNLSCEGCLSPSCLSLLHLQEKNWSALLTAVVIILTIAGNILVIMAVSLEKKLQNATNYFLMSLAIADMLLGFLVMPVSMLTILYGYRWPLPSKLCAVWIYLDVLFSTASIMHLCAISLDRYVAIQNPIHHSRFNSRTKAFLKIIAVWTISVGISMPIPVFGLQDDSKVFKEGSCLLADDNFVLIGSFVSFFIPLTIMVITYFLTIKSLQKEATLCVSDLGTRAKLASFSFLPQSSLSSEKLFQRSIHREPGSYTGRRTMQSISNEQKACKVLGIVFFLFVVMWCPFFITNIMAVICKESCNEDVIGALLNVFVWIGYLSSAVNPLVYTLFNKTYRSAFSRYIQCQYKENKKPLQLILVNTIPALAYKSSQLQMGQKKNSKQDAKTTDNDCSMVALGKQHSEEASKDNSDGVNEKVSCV

The assay has as its target 5-hydroxytryptamine receptor 2A (Homo sapiens, UniProt P28223).

As usually defined, the Ki is the dissociation constant of the complex between target and ligand, obtained from inhibition or displacement. A high value points to weaker binding. In turn, `CN(C)C[C@H]1CC2c3ccccc3Sc3ccc(F)cc3[C@H]2O1` (stereo in doubt; (-)-8d) displayed an inhibitory constant (Ki) of 0.24 nM.

Compound `CN(C)C[C@@H]1CC2c3ccccc3Sc3ccc(F)cc3[C@H]2O1` (stereo partly specified) came in with an inhibition constant Ki of 13 nM.

The compound `CN(C)C[C@H]1CC2c3ccccc3Sc3ccc(F)cc3[C@H]2O1` (stereo in doubt; 8d) had a Ki of 0.56 nM.

Consider `CN(C)C[C@H]1C[C@@H]2c3ccccc3Sc3ccc(F)cc3[C@H]2O1`, for which the inhibition constant Ki amounted to 1.6 nM.

Turning to `CN(C)C[C@@H]1CC2c3ccccc3Oc3ccc(Br)cc3[C@H]2O1` (stereo partly specified), the Ki was 38 nM.

In turn, `CN(C)C[C@H]1CC2c3ccccc3Oc3ccc(Br)cc3[C@H]2O1` (stereo partly specified) gave an inhibitory constant (Ki) of 15 nM.
